Experimental findings from patent US20260258420A1 (published 2026) are described below.

Experiment [1] deals with 17 HPV-negative HNSCC and cervical squamous cancer cell lines. As to the kind of experiment: High-throughput drug screen (HTDS), cell death by AOC_LD, HPV-negative cell lines. The format is cell-based. The settings on record: resistant = AOC_LD 0.
Experiment [2] has as its system 16 HPV-positive HNSCC and cervical squamous cancer cell lines. As to the kind of experiment: High-throughput drug screen (HTDS), cell death by AOC_LD, HPV-positive cell lines. The settings on record: resistant = AOC_LD 0. The format is cell-based.

For `COc1cc2c(c(OC)c1OC)-c1ccc(OC)c(=O)cc1[C@@H](NC(C)=O)CC2` [COLCHICINE], the “HPV negative Resistant (number of cell lines)” value in experiment [1] came out at 7. The “HPV positive Resistant (number of cell lines)” value in experiment [2] is reported as 1.
